Target: SgfSL (SgfSLwt) (Streptomyces griseoflavus, UniProt A0A0M4FJ81)
Assay: residual ABTS oxidation activity with inhibitor
Settings: 0.5 mM ABTS, optimal pH (4.0), 30 °C, 50 mM Britton-Robinson buffer

Sequences of proteins named here, by UniProt entry; tags and fusion partners are left off. Residues count along the entry.
UniProt A0A0M4FJ81, 40-322: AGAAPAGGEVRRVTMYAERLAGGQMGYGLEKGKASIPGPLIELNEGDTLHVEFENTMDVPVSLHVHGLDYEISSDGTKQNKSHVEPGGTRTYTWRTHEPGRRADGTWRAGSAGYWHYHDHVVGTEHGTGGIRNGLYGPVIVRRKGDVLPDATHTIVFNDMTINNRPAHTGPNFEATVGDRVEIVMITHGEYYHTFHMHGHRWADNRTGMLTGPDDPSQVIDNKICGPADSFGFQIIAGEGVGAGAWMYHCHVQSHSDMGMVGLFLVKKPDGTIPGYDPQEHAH

## [N-]=[N+]=N
  The Residual Activity (%) in the Presence of 10 mM of NaN3: 23 ± 1%
